“And” between values parts separate entries of the source, which are not always exact repeats. Equal values may be shown once.
Assays:
[1] = target: T1, acetylcholinesterase from electric eel (AChE) (Electrophorus electricus, UniProt O42275); assay: Acetylcholinesterase inhibitory assay (Ellman's microplate assay); assay type: biochemical; conditions: chemical constituents; Mean ± SD (n = 3); read-out: AChE inhibition, IC50 (converted)
T1 construct: purchased Sigma Chemicals (St. Louis, MO, USA)
Description: (§1) Acetylthiocholine iodide (ATCl), acetylcholinesterase from electric eel (AChE), 5,5'-dithiobis[2-nitrobenzoic acid] (DTNB), butyrylcholinesterase from equine serum (BChE), S-butyrylthiocholine chloride and physostigmine were purchased from Sigma Chemicals (St. Louis, MO, USA). All the other reagents used were of analytical grade.
(§2) Cholinesterase enzymes inhibitory potential of test samples was evaluated using Ellman’s microplate assay following the method described by Ahmed and Gilani with slight modifications. Physostigmine was used as positive control. Test samples and physostigmine were prepared in dimethyl sulfoxide (DMSO). The concentration of DMSO in final reaction mixture was 1%. At this concentration, DMSO has no inhibitory effect on both acetylcholinesterase and butyrylcholinesterase enzymes.
(§3) For acetylcholinesterase (AChE) inhibitory assay, 140 μL of 0.1 M sodium phosphate buffer (pH 8) was first added to a 96-wells microplate followed by 20 μL of test samples and 20 μL of 0.09 units/mL acetylcholinesterase enzyme. […] After the initiation of enzymatic reaction, absorbance of the coloured end-product was measured for 15 min using Tecan Infinite 200 Pro Microplate Spectrophotometer (Männedorf, Switzerland) at 417 nm. […]

Chains of the proteins cited; added tags and fusions are not shown. Residues count along the entry.
UniProt O42275, 24-633: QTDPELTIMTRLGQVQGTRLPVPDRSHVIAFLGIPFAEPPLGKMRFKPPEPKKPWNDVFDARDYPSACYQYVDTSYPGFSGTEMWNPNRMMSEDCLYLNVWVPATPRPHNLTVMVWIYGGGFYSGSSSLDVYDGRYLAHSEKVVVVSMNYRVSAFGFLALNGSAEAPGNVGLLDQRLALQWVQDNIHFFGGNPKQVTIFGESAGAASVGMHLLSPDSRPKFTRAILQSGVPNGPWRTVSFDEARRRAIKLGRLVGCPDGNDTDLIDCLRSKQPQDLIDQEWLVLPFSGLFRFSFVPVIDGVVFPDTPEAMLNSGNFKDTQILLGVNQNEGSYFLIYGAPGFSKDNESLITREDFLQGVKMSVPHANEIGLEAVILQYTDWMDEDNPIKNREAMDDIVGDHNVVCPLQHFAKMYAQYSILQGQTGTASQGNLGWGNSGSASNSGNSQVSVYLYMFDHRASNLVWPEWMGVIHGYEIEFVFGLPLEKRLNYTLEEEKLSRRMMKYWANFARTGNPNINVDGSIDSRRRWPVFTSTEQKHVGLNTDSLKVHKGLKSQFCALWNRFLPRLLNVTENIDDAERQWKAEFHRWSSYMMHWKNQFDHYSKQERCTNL
UniProt P81908, whole entry: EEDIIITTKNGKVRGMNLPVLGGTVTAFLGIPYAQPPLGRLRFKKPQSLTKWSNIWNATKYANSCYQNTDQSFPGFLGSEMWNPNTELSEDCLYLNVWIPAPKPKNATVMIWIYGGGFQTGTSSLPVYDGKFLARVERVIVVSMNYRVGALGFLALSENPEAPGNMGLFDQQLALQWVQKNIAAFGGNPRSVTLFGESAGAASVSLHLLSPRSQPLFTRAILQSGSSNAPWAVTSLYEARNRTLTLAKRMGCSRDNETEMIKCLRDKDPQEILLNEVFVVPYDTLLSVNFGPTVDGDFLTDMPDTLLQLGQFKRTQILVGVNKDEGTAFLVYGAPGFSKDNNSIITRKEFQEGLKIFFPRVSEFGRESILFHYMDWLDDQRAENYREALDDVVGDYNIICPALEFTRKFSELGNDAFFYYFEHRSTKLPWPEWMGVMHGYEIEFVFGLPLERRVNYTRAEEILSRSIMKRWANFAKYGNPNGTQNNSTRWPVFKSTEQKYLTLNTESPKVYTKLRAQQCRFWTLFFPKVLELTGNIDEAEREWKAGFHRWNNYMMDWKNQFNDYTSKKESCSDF

[2] = target: T2, butyrylcholinesterase from equine serum (BChE) (Equus caballus, UniProt P81908); assay: Butyrylcholinesterase inhibitory assay (Ellman's microplate assay); assay type: biochemical; conditions: chemical constituents; Mean ± SD (n = 3); read-out: BChE inhibition, IC50 (converted)
T2 construct: purchased Sigma Chemicals (St. Louis, MO, USA); host or cells: equine serum
Description: as §1, §2, §3

SMILES: CNC(=O)Oc1ccc2c(c1)[C@]1(C)CCN(C)[C@@H]1N2C [Physostigmine, physostigmine, reference compound]
- IC50 [1]: 167 nM and 170 nM
- IC50 [2]: 588 nM and 590 nM
